One protein from FireProtDB (doi:10.1093/protein/11.5.377) can be followed below.

For this series the following is noted: Homo sapiens, Thermal, DSC, Sodium phosphate-HCl 0.05 M, reversible: no, whole UniProt chain shown; for unfolding free energy: 25 °C.

Where “and” joins values, the source holds several entries; their conditions need not be identical. Equal entries are not always repeated.

B1: Ferritin light chain wild type, P02792 (protein)
chain: MSSQIRQNYSTDVEAAVNSLVNLYLQASYTYLSLGFYFDRDDVALEGVSHFFRELAEEKREGYERLLKMQNQRGGRALFQDIKKPAEDEWGKTPDAMKAAMALEKKLNQALLDLHALGSARTDPHLCDFLETHFLDEEVKLIKKMGDHLTNLHRLGGPEAGLGEYLFERLTLKHD
As for B1, for the setting “pH 2”, the unfolding free energy was determined as 2.51 kcal/mol; the “unfolding enthalpy (calorimetric)” value was 70.3 kcal/mol and 40.4 kcal/mol; the “unfolding enthalpy (van 't Hoff)” value is 41.7 kcal/mol and 40.4 kcal/mol. Besides, where the note is “pH 2.2”, the Tm was found to be 53.1 °C, the “unfolding enthalpy (calorimetric)” value was found to be 86.3 kcal/mol and the “unfolding enthalpy (van 't Hoff)” value stood at 86.9 kcal/mol. Moreover, under “pH 2.4”, the unfolding free energy was determined as 9.62 kcal/mol; the “unfolding enthalpy (calorimetric)” value is 103 kcal/mol and 40.6 kcal/mol; the “unfolding enthalpy (van 't Hoff)” value was 105 kcal/mol and 44.1 kcal/mol. Under “pH 2.8”, the unfolding free energy turned out to be 11.6 kcal/mol; the “unfolding enthalpy (calorimetric)” value is 106 kcal/mol and 41.1 kcal/mol.

What is called Tm is the temperature at which the thermal transition is half complete.
